The list shows a part of the results, in another mix than the full data. Calls of active or inactive are those of the source.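 The calls were made as follows: active = activation above the mean activation of all test compounds in the run plus 3 SD (cut at about 38% in these data); inactive = the rest.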

Chains of the proteins cited; added tags and fusions are not shown.
UniProt Q96RJ0, whole entry: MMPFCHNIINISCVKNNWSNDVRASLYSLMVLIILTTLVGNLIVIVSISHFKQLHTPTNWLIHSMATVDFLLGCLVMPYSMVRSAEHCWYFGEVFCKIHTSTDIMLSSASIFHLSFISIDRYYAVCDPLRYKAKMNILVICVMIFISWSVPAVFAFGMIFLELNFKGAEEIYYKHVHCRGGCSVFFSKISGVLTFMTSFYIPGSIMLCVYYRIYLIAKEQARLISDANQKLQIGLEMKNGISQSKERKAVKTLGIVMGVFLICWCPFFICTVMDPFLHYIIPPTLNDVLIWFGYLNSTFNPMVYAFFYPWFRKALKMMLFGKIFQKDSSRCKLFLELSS

We go through 61 compounds from PubChem BioAssay AID624467 (The Scripps Research Institute Molecular Screening Center, 2012).

This assay deals with Trace amine-associated receptor 1 (Homo sapiens) (UniProt Q96RJ0). The assay is described as follows: activators of TAAR1 calcium mobilization – Fluo-8 calcium fluorescence, CHO RD-HGA16 cells, primary screen (AID 624467). The conditions noted are these: CHO RD-HGA16 TAAR1, Fluo-8 calcium fluorescence; at 3 µM; stronger effect = higher value; vehicle wells 0%, saturating PEA agonist 100%. (In general: Calcium assays in cells follow changes in intracellular calcium, usually with a dye or a luminescent sensor.)
Turning to `CCC(CO)(C(=O)OC1CN2CCC1CC2)c1ccccc1` (stereo unspecified), the activation is inactive: 10.8%.

Consider `COc1cccc(C(c2nnnn2C2CCCC2)N2CCC(n3c(=O)[nH]c4ccccc43)CC2)c1OC` (stereo unspecified), for which the activation was inactive: 10.7%.

Turning to `COc1cc(OC)cc(C(=O)NCC2(N3CCOCC3)CCCCC2)c1`, the activation is inactive: 4.17%.

As to `COc1cccc(C(=O)N(c2cc(C)cc(C)c2)C2CCN(C(=O)OC(C)(C)C)CC2)c1`, the activation is inactive: 0.91%.

Regarding `CN1CCC(Nc2ccc(Cl)cc2)CC1`, the activation was inactive: 0.44%.

Take `CN1CCC(Nc2ccc(F)c(Cl)c2)CC1`: the activation was inactive: 8.19%.

Regarding `CCOc1ncccc1C(=O)NCC1(N2CCOCC2)CCCCC1`, the activation was inactive: 14.5%.

`CCCOc1ccc(C(=O)NCC2(N(C)C)CCCCC2)cc1`: the activation is inactive: 7.4%.

On to `O=c1[nH]c2ccccc2n1C1CCN(C(c2cc3ccccc3o2)c2nnnn2C2CCCC2)CC1` (stereo unspecified), for which the activation was inactive: 2.21%.

With `O=C(O)C1(Nc2ccccc2)CCN(Cc2ccccc2)CC1`, the activation was inactive: 2.5%.

For the compound `NN(c1ccccc1)C1CCN(CCc2ccccc2)CC1`, the activation is inactive: 4.09%.

For `CC(C)(C)OC(=O)N1CCC(Nc2ccccc2)CC1`, the activation is inactive: 12%.

As for `CC(C)(C)n1nnnc1C(c1ccnc2ccccc12)N1CCC(n2c(=O)[nH]c3ccccc32)CC1` (stereo unspecified), the activation was inactive: 12.8%.

`CCN1CCC(Nc2cccc(F)c2)CC1`: the activation is inactive: 5.05%.

`COc1ccc(C(c2nnnn2C2CCCCC2)N2CCC(n3c(=O)[nH]c4ccccc43)CC2)cc1` (stereo unspecified): the activation was inactive: 14%.

In the case of `Cc1ccccc1NC1(C#N)CCN(Cc2ccccc2)CC1`, the activation is inactive: 2.01%.

`Cn1c(=O)[nH]cc(N(CCCl)CCCl)c1=O`: the activation was inactive: 5.31%.

Regarding `CN(C)c1ccc(C(=O)NCC2(N3CCCCC3)CCCCC2)cc1`, the activation was inactive: -0.14%.

For `O=C(NCC1(N2CCCCC2)CCCCC1)c1ccco1`, the activation was inactive: 9.47%.

On to `O=c1[nH]c2ccccc2n1C1CCN(C(c2ccnc3ccccc23)c2nnnn2C2CCCCC2)CC1` (stereo unspecified), for which the activation is inactive: 36.4%.

On to `COc1cc(OC)cc(C(=O)NCC2(N3CCCCC3)CCCCC2)c1`, for which the activation was inactive: -1.44%.

In the case of `CCC(c1nnnn1C1CCCCC1)N1CCC(n2c(=O)[nH]c3ccccc32)CC1` (stereo unspecified), the activation is inactive: 14.8%.

With `CC(=O)N(c1ccccc1)C1CCNCC1`, the activation is inactive: 1.46%.

`COc1cccc(C(c2nnnn2C2CCCCC2)N2CCC(n3c(=O)[nH]c4ccccc43)CC2)c1OC` (stereo unspecified): the activation is inactive: 16.5%.

On to `Cc1ccc(NC2(C#N)CCN(Cc3ccccc3)CC2)cc1`, for which the activation was inactive: 4.38%.

`Fc1ccccc1NC1CCN(Cc2ccccc2)CC1`: the activation is inactive: 0.55%.

On to `Cc1ccc(C(=O)NCC2(N3CCCCC3)CCCCC2)o1`, for which the activation is inactive: -0.22%.

As for `Cc1cc(N(CCCl)CCCl)ccc1C=O`, the activation is inactive: -0.83%.

As for `CCCN1CCC(Nc2cc(OC)cc(OC)c2)CC1`, the activation was inactive: 1.94%.

Turning to `O=c1[nH]c2ccccc2n1C1CCN(C(c2ccccc2)c2nnnn2C2CCCC2)CC1` (stereo unspecified), the activation was inactive: 13.3%.

On to `c1ccc(CN2CCC(Nc3ccccc3)CC2)cc1`, for which the activation was inactive: 4.67%.

Consider `C/C(N)=N\P(=O)(Oc1ccccc1)Oc1ccccc1`, for which the activation was inactive: 1.16%.

For `CN(C)C1(CNC(=O)c2cccc(C#N)c2)CCCCC1`, the activation was inactive: 0.6%.

Turning to `CC(C)(C)n1nnnc1C(c1cccc2ccccc12)N1CCC(n2c(=O)[nH]c3ccccc32)CC1` (stereo unspecified), the activation is inactive: 2.83%.

As for `CC(C)(C)OC(=O)N1CCC(N(C(=O)c2ccccc2)c2ccc(Cl)cc2)CC1`, the activation is inactive: 2.19%.

With `N#Cc1ccc(C(=O)NCC2(N3CCCCC3)CCCCC2)cc1`, the activation was inactive: 0.48%.

Regarding `N/C(=N\O)c1c(N)no[n+]1[O-]`, the activation is inactive: -0.4%.

Take `COc1cccc(C(c2nnnn2C(C)(C)C)N2CCC(n3c(=O)[nH]c4ccccc43)CC2)c1OC` (stereo unspecified): the activation is inactive: 8.99%.

Turning to `CCOC(=O)N1CCC(Nc2ccc(C)cc2)CC1`, the activation is inactive: 0.52%.

For `CCCCn1nnnc1C(c1cccc(OC)c1OC)N1CCC(n2c(=O)[nH]c3ccccc32)CC1` (stereo unspecified), the activation was inactive: 8.64%.

Consider `O=c1[nH]c2ccccc2n1C1CCN(C(c2cccs2)c2nnnn2C2CCCC2)CC1` (stereo unspecified), for which the activation is inactive: 26.4%.

In the case of `O=C(OC1CN2CCC1CC2)C1c2ccccc2C=Cc2ccccc21` (stereo unspecified), the activation is inactive: 2.68%.

For `O=C(NCC1(N2CCOCC2)CCCCC1)c1cc(Br)ccc1Cl`, the activation is inactive: -1.56%.

For the compound `COc1cc(C(=O)NCC2(N3CCOCC3)CCCCC2)cc(OC)c1C`, the activation was inactive: -0.35%.

For the compound `CCCCn1nnnc1C(c1ccccc1)N1CCC(n2c(=O)[nH]c3ccccc32)CC1` (stereo unspecified), the activation is inactive: 9.56%.

Consider `O=c1[nH]c2ccccc2n1C1CCN(C(c2ccnc3ccccc23)c2nnnn2C2CCCC2)CC1` (stereo unspecified), for which the activation is inactive: 14.4%.

Consider `COc1ccc(C(=O)NCC2(N3CCOCC3)CCCCC2)cc1OC`, for which the activation is inactive: -1%.

Regarding `O=c1[nH]c2ccccc2n1C1CCN(C(c2cccs2)c2nnnn2C2CCCCC2)CC1` (stereo unspecified), the activation was inactive: 35.3%.

As to `O=C(NCC1(N2CCCCC2)CCCCC1)c1cncc(Br)c1`, the activation is inactive: 1%.

On to `CN1CCC(Nc2cccc(F)c2)CC1`, for which the activation is inactive: 7.96%.

With `CCCOc1ccc(C(=O)NCC2(N(C)C)CCCCC2)cc1OC`, the activation is inactive: -0.47%.

With `Cc1ccc(C(=O)NCC2(N(C)C)CCCCC2)o1`, the activation was inactive: 5.55%.

Turning to `COc1ccc(C(c2nnnn2C2CCCC2)N2CCC(n3c(=O)[nH]c4ccccc43)CC2)cc1` (stereo unspecified), the activation was inactive: 4.71%.

As for `CN(C)c1cccc(C(=O)NCC2(N3CCCCC3)CCCCC2)c1`, the activation is inactive: -0.52%.

On to `COc1ccc(CN(CCCl)CCCl)cc1Cl`, for which the activation is inactive: 9.62%.

Take `CC(C)c1ccc(NC2CCN(C(=O)OC(C)(C)C)CC2)cc1`: the activation was inactive: 4.64%.

For the compound `CCCCn1nnnc1C(c1ccnc2ccccc12)N1CCC(n2c(=O)[nH]c3ccccc32)CC1` (stereo unspecified), the activation was inactive: 17.8%.

On to `CCC(c1nnnn1C(C)(C)C)N1CCC(n2c(=O)[nH]c3ccccc32)CC1` (stereo unspecified), for which the activation is inactive: 6.24%.

In the case of `O=C(NCC1(N2CCOCC2)CCCCC1)c1cc(F)c(F)cc1Cl`, the activation is inactive: 10.3%.

For `COc1cc(OC)c(C(=O)NCC2(N(C)C)CCCCC2)cc1OC`, the activation was inactive: 2.57%.

On to `O=C(NCC1(N2CCCCC2)CCCCC1)c1cccc(C(F)(F)F)c1`, for which the activation is inactive: -1.97%.
